Only a part is listed here, and it is no random draw. Records with an inconclusive call do not appear. Calls of active or inactive are those of the source. Calls follow the shape of the dose curve; as a rule, active = well fitted activation curve with a large enough effect; inconclusive = small, poorly fitted or top-dose-only effect; inactive = no such curve, though single readings can be large or run the other way.
Assay: qHTS for Suppressors of FUS Proteinopathy: Primary screen using FUS-linked yeast assay;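 also: plate controls were DMSO vehicle for no effect and reference control for full effect; nearly all actives have a fitted effect of over 55% in size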
Conditions: S. cerevisiae FUS-expressing, OD600, 24 h; at 76.6 µM (top of the series)
Text: Several widespread neurodegenerative diseases, including Alzheimer disease, Huntington disease, Frontotemporal Lobar Degeneration (FTLD) and Amyotrophic Lateral Sclerosis (ALS), share a common pathological feature, namely accumulation of specific protein aggregates in diseased tissue. These diseases which is associated with protein misfolding (proteinopathies) have become increasingly problematic as the population ages and life expectancies are extended. Most proteinopathies are currently incurable, a situation confounded by the fact that the basis of neurodegeneration is generally poorly understood. There exists urgent and significant need to find therapeutics that can inhibit the toxicity associated with protein aggregation. […]
For this project, a yeast model of the FUS proteinopathies (a spectrum of neurodegenerative diseases that include ALS and a subtype of FTLD) was generated and employed. […] This model was validated to be suitable for quantitative HTS (qHTS) use for finding genetic or chemical factors that restore growth. […]
Four hundred fifty microliter of cultured yeast (in 20mL rich medium) provided by Dr. Shewmaker lab was incubated at 30C at 99% humidity for 3hr. […] Absorbance at 600nm was then read using the PerkinElmer ViewLux plate reader.

Q: For `CCC(=O)N(c1ccccc1)C1(COC)CCN(CCc2cccs2)CC1`, which growth rescue (activation) is on record?
A: inactive: -39.9%

Q: With `CCC(=O)N(c1ccccc1)C1(COC)CCN(CCn2nnn(CC)c2=O)CC1` as the compound, how does the growth rescue (activation) read?
A: inactive: -25.4%
